How the values were obtained:
[1] = target: FGFR4 (Homo sapiens, UniProt P22455); assay: HTRF enzyme activity test, FGFR4; format: biochemical
[2] = target: T1, FGFR3 (Homo sapiens, UniProt P22607); assay: HTRF enzyme activity test, FGFR3; format: biochemical
T1 construct: made in house; host or cells: Escherichia coli

Chains of the proteins cited; added tags and fusions are not shown. Residues count along the entry.
UniProt P22455, 22-802: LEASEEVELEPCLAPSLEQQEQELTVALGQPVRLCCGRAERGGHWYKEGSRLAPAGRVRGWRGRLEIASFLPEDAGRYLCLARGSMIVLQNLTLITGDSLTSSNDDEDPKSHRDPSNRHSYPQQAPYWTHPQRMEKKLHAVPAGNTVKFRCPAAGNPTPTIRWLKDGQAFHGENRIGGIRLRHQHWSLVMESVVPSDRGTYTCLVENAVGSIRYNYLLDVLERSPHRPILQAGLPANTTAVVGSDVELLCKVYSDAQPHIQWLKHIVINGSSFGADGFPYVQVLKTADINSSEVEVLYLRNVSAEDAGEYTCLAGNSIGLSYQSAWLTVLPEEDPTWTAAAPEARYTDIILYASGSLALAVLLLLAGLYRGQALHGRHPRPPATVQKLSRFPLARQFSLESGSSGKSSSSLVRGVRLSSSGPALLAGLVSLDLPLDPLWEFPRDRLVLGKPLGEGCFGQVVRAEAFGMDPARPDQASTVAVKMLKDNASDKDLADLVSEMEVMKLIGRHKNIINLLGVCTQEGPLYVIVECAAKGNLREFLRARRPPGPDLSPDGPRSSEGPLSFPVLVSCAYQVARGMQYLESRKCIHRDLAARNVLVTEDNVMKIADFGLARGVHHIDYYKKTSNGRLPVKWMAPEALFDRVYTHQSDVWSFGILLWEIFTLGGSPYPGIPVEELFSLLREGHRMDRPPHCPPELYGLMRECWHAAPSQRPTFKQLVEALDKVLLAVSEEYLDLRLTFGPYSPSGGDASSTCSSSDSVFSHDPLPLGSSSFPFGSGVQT
UniProt P22607, 23-806: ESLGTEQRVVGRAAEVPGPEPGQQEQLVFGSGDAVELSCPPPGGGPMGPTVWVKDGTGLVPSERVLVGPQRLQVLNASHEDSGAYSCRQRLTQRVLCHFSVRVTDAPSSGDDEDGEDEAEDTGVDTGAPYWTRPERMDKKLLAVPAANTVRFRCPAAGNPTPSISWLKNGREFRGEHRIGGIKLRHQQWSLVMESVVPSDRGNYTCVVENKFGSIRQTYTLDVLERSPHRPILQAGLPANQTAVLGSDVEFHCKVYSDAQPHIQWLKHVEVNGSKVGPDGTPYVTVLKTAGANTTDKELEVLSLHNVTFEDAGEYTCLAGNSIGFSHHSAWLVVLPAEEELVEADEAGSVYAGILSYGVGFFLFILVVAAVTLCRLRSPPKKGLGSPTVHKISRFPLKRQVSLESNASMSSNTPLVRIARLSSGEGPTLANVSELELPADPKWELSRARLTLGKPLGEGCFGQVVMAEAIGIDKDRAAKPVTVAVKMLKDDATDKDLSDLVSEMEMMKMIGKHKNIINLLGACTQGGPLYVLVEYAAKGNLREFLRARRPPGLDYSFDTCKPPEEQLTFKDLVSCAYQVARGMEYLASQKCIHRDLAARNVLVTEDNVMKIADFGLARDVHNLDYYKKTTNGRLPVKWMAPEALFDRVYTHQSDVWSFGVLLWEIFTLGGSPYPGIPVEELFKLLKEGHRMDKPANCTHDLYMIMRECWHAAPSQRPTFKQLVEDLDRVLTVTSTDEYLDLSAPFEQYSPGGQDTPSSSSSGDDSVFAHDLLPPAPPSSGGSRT
UniProt P11362, 22-822: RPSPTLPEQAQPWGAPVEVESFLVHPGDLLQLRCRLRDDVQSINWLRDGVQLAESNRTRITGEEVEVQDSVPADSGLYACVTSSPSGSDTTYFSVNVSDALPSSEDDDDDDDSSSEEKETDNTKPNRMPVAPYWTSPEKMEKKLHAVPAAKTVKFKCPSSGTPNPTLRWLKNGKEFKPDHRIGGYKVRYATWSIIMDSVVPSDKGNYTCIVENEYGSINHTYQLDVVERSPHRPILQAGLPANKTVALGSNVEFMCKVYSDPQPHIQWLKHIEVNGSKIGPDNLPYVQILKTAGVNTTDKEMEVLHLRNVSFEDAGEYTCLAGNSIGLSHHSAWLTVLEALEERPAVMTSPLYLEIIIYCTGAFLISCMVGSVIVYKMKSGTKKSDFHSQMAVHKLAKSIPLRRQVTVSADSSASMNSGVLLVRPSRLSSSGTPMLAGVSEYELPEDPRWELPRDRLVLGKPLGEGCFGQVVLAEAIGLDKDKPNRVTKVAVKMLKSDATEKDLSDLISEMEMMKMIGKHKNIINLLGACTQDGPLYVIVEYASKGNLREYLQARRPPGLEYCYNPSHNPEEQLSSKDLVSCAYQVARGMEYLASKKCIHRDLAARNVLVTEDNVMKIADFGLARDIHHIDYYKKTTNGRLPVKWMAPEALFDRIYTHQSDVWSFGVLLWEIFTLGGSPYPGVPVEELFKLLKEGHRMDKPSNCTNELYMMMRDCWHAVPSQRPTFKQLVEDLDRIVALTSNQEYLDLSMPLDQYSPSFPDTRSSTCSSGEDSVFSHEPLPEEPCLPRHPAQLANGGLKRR

[3] = target: T2, FGFR1 (Homo sapiens, UniProt P11362); assay: HTRF enzyme activity test, FGFR1; format: biochemical
T2 construct: made in house; host or cells: Escherichia coli

[4] = test system: NCI-H1581 subcutaneous xenograft (high FGFR1 expression); conditions: mouse, in vivo

Row | IC50 [1] [nM] | IC50 [2] [nM] | IC50 [3] [nM] | Structure (SMILES) | body weight loss [4] | tumor inhibition rate [4] [%]
1 | > 5000 | > 5000 | > 5000 | C=CC(=O)N1CCN(CCCCCn2nc(-c3ccc(C)c4ccccc34)c3c(N)ncnc32)CC1 [Compound 19] |  | 
2 | > 5000 | > 5000 | > 5000 | C=CC(=O)N1CCN(CCCCCn2nc(-c3ccc(Br)c4ccccc34)c3c(N)ncnc32)CC1 [Compound 20] |  | 
3 |  |  |  | COc1cc(OC)cc(-c2nn(CCCCCN3CCN(C(=O)/C=C/C(F)(F)F)CC3)c3ncnc(N)c23)c1 [Compound 36] | did not lead to an obvious weight loss | 72

— US20230159537A1, “COMPOUND, PREPARATION METHOD THEREOF, AND USE THEREOF IN PREPARATION OF ANTI-CANCER DRUG” (TIANJIN JIKUN MEDICAL TECHNOLOGY CO., LTD., priority 2020, published 2023)
